{
  "source": "patent US20240158516A1",
  "about": "“METHODS FOR THE TREATMENT OF THYROID EYE DISEASE” (Horizon Therapeutics Ireland DAC, priority 2021, published 2024)",
  "origin": "cited, not measured here",
  "conditions": "in vivo, iv; cited from earlier work",
  "data": [
    {"substance": "Ganitumab", "values": [
      {"measurement": "T1/2", "value": "IV; 6-9 days"}
    ]}
  ]
}
